Source: article PMC10289903 (Investigational New Drugs, 2023)

Test system: locally advanced or metastatic solid tumors
Assay: Preliminary antitumor activity (ORR, DCR, SD, PFS; RECIST v1.1)
Assay type: in vivo, human
Settings: bid 1: 125 mg bid 5/9 (n=6)

C=CCn1c(=O)c2cnc(Nc3ccc(N4CCN(C)CC4)cc3)nc2n1-c1cccc(C(C)(C)O)n1 [adavosertib, Adavosertib]
DCR, CP + PR + SD/n (%): 4 (66.7) CP + PR + SD/n (%)
Median PFS, months (95% CI): 3.7 (1.5–5.5) months
ORR, CP + PR/n (%): 0^a CP + PR/n (%)

Marks after values point to notes of the source that are not given here.
